Reference: patent US12649748B2, “Wee1 inhibitor and use thereof” (JIANGSU TASLY DIYI PHARMACEUTICAL CO., LTD., priority 2021, dated 2026)

By UniProt entry, the sequences of proteins in these tests, tags left out.
UniProt P30291, whole entry: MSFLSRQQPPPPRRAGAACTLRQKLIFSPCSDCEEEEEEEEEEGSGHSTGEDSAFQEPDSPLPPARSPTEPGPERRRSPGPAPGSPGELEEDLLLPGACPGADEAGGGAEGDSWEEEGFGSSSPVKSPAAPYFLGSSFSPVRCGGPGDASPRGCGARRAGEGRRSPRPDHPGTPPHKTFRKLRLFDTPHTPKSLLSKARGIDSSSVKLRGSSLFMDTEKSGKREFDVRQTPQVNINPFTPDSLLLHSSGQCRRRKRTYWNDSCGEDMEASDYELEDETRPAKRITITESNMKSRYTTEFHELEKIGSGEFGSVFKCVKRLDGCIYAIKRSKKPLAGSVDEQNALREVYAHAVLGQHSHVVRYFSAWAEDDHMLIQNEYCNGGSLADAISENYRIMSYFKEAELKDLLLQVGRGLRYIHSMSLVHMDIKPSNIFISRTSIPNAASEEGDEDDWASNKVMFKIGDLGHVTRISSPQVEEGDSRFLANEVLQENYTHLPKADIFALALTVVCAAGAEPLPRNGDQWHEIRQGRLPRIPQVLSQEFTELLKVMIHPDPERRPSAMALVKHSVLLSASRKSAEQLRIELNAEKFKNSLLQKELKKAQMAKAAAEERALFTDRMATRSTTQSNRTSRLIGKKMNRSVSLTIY

Legend:
Wee1 protein = Wee1 protein (Homo sapiens, UniProt P30291); assay: Binding of compound to Wee1 protein and Tracer 178 by TR-FRET; settings: read-out: IC50 measured value, inhibitory activity against Wee1 kinase
H1299 cells = assay: Anti-proliferative effect by Cell Titer-Glo, H1299; format: cell-based; settings: read-out: IC50 measured value H1299, 3 days
Procedure: (§1) Compound solutions of different concentration gradients were prepared. DMSO was dissolved to a concentration of 10 mM test compound and 10 mM reference compound AZD1775, and the compounds were serially diluted in culture medium for a total of 9 dose points, with 2 parallel replicates set at each concentration. The cell growth group without compound was used as a positive control (maximum signal control) and the medium was used as a negative control (minimum signal control), while ensuring that the final level of DMSO in each reaction well was 0.2%. […]
(§2) The 384-well plates were removed from the cell incubator and allowed to equilibrate for 1 h to room temperature. 25 ul of Cell Titer-Glo assay was added to each well, lysed on a shaker for 2 min and then read out (Luminescence) using a BMG PHERAStar after 10 min incubation. Calculate the inhibition rate from the luminescence signal: first calculate the average of the positive control (maximum signal control) and the negative control (minimum signal control).
(§3) [formula] to calculate the rate of inhibition of the cells by different concentrations of the compounds. The IC50 of the compound on cell activity inhibition was calculated by fitting a log(inhibitor) vs. response-Variable slope model to GraphPad Prism 6. […]

MIA Paca-2 cells = assay: Anti-proliferative effect by Cell Titer-Glo, MIA Paca-2; format: cell-based; settings: read-out: IC50 measured value MIA Paca-2, 3 days
Procedure: as §1, §2, §3

IC50 (Wee1 protein) | IC50 (H1299 cells) | IC50 (MIA Paca-2 cells) | SMILES
0.01 to 0.1 µM | 1 to 5 µM |  | CC(=O)N1CCc2ccc(Nc3ncc4cnn(-c5cccc(N=S(C)(C)=O)n5)c4n3)cc2C1
0.01 to 0.1 µM | 0.1 to 1 µM | 0.1 to 1 µM | CN1CCN(c2ccc(Nc3ncc4cnn(-c5csc(C(C)(C)O)c5)c4n3)cc2)CC1
